According to IntAct's records for PubMed 21481773:

B1: Negative regulator of ofd1 (Schizosaccharomyces pombe (strain ATCC 38366 / 972)), Q9USJ7 (parent)
chain: MIGRRPQGLRAAASLKKQQQLEKQKQEASYELSGNSSPSKENGSENVDNGEMEDETMLVYTEEDNISQLWGLYEMSREKLENDDIDASVSLVFGTIHEADRILRNTEDISTLPKDFHAAYSSALLAVSELFEIAQKRLKETNTEESYIDAAIERAQLGLDAPGNESRLFLALARAYLEKVRVLVWRHDNEESLANIPVTQLVNPYIEKAIQYLRPLAQDSTEYFDALTPDSLRPLYILSSYLFQFGDQFSEAFLLDVCSIITALWLKSVVDPNTPAYYKLIAQEAVLNNYTTFAEYYMDLLDNSESNVDDLINKASSWLNNSVDTWNVIYTLDKSPERLLKLADIKMDLAQIVQDEASQDNYLKEACNAIKEAQGSGVELSPDYVEFVEAYSA
partner: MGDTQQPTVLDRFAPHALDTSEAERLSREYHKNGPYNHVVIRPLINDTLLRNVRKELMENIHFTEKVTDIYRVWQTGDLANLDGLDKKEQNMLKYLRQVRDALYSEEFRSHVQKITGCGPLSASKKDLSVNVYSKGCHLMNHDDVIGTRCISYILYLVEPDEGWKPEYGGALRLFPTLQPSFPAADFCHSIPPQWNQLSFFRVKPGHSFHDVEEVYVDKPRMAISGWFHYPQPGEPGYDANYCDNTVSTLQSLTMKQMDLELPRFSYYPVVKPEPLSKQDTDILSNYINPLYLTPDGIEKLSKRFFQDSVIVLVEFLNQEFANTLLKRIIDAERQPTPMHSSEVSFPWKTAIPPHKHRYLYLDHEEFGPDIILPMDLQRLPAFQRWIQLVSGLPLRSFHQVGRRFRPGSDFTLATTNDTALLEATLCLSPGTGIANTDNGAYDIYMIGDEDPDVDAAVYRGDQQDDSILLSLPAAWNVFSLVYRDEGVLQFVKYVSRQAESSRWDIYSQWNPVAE

Variants of: B1
Settings: with ofd1_schpo ofd1, Q11120

Effect of a mutation on the interaction, decreasing interaction:
MIGRRPQGLRAAASLKKQQQLEKQKQEASYELSGNSSPSKENGSENVDNGEMEDETMLVYTEEDNISQLWGLYEMSREKLENDDIDASVSLVFGTIHEADRILRNTEDISTLPKDFHAAHSSALLAVSELFEIAQKRLKETNTEESYIDAAIERAQLGLDAPGNESRLFLALARAYLEKVRVLVWRHDNEESLANIPVTQLVNPYIEKAIQYLRPLAQDSTEYFDALTPDSLRPLYILSSYLFQFGDQFSEAFLLDVCSIITALWLKSVVDPNTPAYYKLIAQEAVLNNYTTFAEYYMDLLDNSESNVDDLINKASSWLNNSVDTWNVIYTLDKSPERLLKLADIKMDLAQIVQDEASQDNYLKEACNAIKEAQGSGVELSPAYVEFVEAYSA [Y120H;D383A]
MIGRRPQGLRAAASLKKQQQLEKQKQEASYELSGNSSPSKENGSENVDNGEMEDETMLVYTEEDNISQLWGLYEMSREKLENDDIDASVSLVFGTIHEADRILRNTEDISTLPKDFHAAYSSALLAVSELFEIAQKRLKETNTEESYIDAAIERAQLGLDAPGNESRLFLALARAYLEKVRVLVWRHDNEESLANIPVTQLVNPYIEKAIQYLRPLAQDSTEYFDALTPDSLRPLYILSSYLFQFGDQFSEAFLLDVCSIITALWLKSVVDPNTPAYYKLIAQEAVLNNYTTFAAYYMDLLANSESNVDDLINKASSWLNNSVDTWNVIYTLDKSPERLLKLADIKMDLAQIVQDEASQDNYLKEACNAIKEAQGSGVELSPDYVEFVEAYSA [E295A;D302A]
MIGRRPQGLRAAASLKKQQQLEKQKQEASYELSGNSSPSKENGSENVDNGEMEDETMLVYTEEDNISQLWGLYEMSREKLENDDIDASVSLVFGTIHEADRILRNTEDISTLPKDFHAAYSSALLAVSELFEIAQKRLKETNTEESYIDAAIERAQLGLDAPGNESRLFLALARAYLEKVRVLVWRHDNEESLANIPVTQLVNPYIEKAIQYLRPLAQDSTEYFDALTPDSLRPLYILSSYLFQFGDQFSEAFLLDVCSIITALWLKSVVDPNTPAYYKLIAQEAVLNNYTTFAQYYMNLLNNSESNVDDLINKASSWLNNSVDTWNVIYTLDKSPERLLKLADIKMDLAQIVQDEASQDNYLKEACNAIKEAQGSGVELSPDYVEFVEAYSA [E295Q;D299N;D302N]
MIGRRPQGLRAAASLKKQQQLEKQKQEASYELSGNSSPSKENGSENVDNGEMEDETMLVYTEEDNISQLWGLYEMSREKLENDDIDASVSLVFGTIHEADRILRNTEDISTLPKDFHAAYSSALLAVSELFEIAQKRLKETNTEESYIDAAIERAQLGLDAPGNESRLFLALARAYLEKVRVLVWRHDNEESLANIPVTQLVNPYIEKAIQYLRPLAQDSTEYFDALTPDSLRPLYILSSYLFQFGDQFSEAFLLDVCSIITALWLKSVVDPNTPAYYKLIAQEAVLNNYTTFAEYYMALLANSESNVDDLINKASSWLNNSVDTWNVIYTLDKSPERLLKLADIKMDLAQIVQDEASQDNYLKEACNAIKEAQGSGVELSPDYVEFVEAYSA [D299A;D302A]
MIGRRPQGLRAAASLKKQQQLEKQKQEASYELSGNSSPSKENGSENVDNGEMEDETMLVYTEEDNISQLWGLYEMSREKLENDDIDASVSLVFGTIHEADRILRNTEDISTLPKDFHAAYSSALLAVSELFEIAQKRLKETNTEESYIDAAIERAQLGLDAPGNESRLFLALARAYLEKVRVLVWRHDNEESLANIPVTQLVNPYIEKAIQYLRPLAQDSTEYFDALTPDSLRPLYILSSYLFQFGDQFSEAFLLDVCSIITALWLKSVVDPNTPAYYKLIAQEAVLNNYTTFAEYYMDLLDNSESNVDDLINKASSWLNNSVDTWNVIYTLDKSPERLLKLAAIKMDLAQIVQDEASQDNYLKEACNAIKEAQGSGVELSPDYVEFVEAYSA [D344A]
MIGRRPQGLRAAASLKKQQQLEKQKQEASYELSGNSSPSKENGSENVDNGEMEDETMLVYTEEDNISQLWGLYEMSREKLENDDIDASVSLVFGTIHEADRILRNTEDISTLPKDFHAAYSSALLAVSELFEIAQKRLKETNTEESYIDAAIERAQLGLDAPGNESRLFLALARAYLEKVRVLVWRHDNEESLANIPVTQLVNPYIEKAIQYLRPLAQDSTEYFDALTPDSLRPLYILSSYLFQFGDQFSEAFLLDVCSIITALWLKSVVDPNTPAYYKLIAQEAVLNNYTTFAEYYMDLLDNSESNVDDLINKASSWLNNSVDTWNVIYTLDKSPERLLKLAAIKMDLAQIVQDEASQDNYLKEACNAIKEAQGSGVELSPAYVEFVEAYSA [D344A;D383A]
MIGRRPQGLRAAASLKKQQQLEKQKQEASYELSGNSSPSKENGSENVDNGEMEDETMLVYTEEDNISQLWGLYEMSREKLENDDIDASVSLVFGTIHEADRILRNTEDISTLPKDFHAAYSSALLAVSELFEIAQKRLKETNTEESYIDAAIERAQLGLDAPGNESRLFLALARAYLEKVRVLVWRHDNEESLANIPVTQLVNPYIEKAIQYLRPLAQDSTEYFDALTPDSLRPLYILSSYLFQFGDQFSEAFLLDVCSIITALWLKSVVDPNTPAYYKLIAQEAVLNNYTTFAEYYMDLLDNSESNVDDLINKASSWLNNSVDTWNVIYTLDKSPERLLKLADIKMALAQIVQDEASQDNYLKEACNAIKEAQGSGVELSPDYVEFVEAYSA [D348A]
